Like-named read-outs stand apart in the source and are kept apart here.
Tests used:
D2 = D2 (Homo sapiens, UniProt P14416); test: Receptor binding, D2
5-HT2A = 5-HT2A (Homo sapiens, UniProt P28223); test: Receptor binding, 5-HT2A; conditions: for inhibition at 0.1 µM: read-out: 5-HT2A maximum inhibition; for 5-HT2A maximum inhibition: 0.1 µM
SERT = SERT (Homo sapiens, UniProt P31645); test: Receptor binding, SERT; conditions: for inhibition at 0.1 µM: at 100 nM
D1 = D1 (Homo sapiens, UniProt P21728); test: Receptor binding, D1; conditions: for inhibition at 0.1 µM: read-out: D1 maximum inhibition
Mu opioid receptor = Mu opioid receptor (Homo sapiens, UniProt P35372); test: Receptor binding, Mu opioid receptor; conditions: for inhibition at 0.1 µM: at 100 nM, read-out: Mu maximum inhibition
[1] = at 100 nM, read-out: D2 maximum inhibition
[2] = read-out: SERT maximum inhibition
[3] = at 200 nM, read-out: SERT maximum inhibition
[4] = read-out: D2 maximum inhibition
[5] = (footnote c), read-out: SERT maximum inhibition

CCCCN1CC[C@H]2[C@@H](C1)c1cccc3c1N2CC(=O)N3 [Ex. 1, (6bR,10aS)-8-butyl-6b,7,8,9,10,10a-hexahydro-1H-pyrido[3′,4′:4,5]pyrrolo[1,2,3-de]quinoxalin-2(3H)-one]
inhibition at 0.1 µM (D2; [1]): 15% | inhibition at 0.1 µM (5-HT2A): < 0% | inhibition at 0.2 µM (SERT; [2]): < 0%

O=C1CN2c3c(cccc3[C@@H]3CN(CCCO)CC[C@@H]32)N1 [Ex. 2, (6bR,10aS)-8-(3-hydroxypropyl)-6b,7,8,9,10,10a-hexahydro-1H-pyrido[3′,4′:4,5]pyrrolo[1,2,3-de]quinoxalin-2(3H)-one]
inhibition at 0.1 µM (5-HT2A): 8% | inhibition at 0.2 µM (SERT; [3]): < 0%

O=C1CN2c3c(cccc3[C@@H]3CN(CCCOc4ccccc4)CC[C@@H]32)N1 [Ex. 3, (6bR,10aS)-8-(3-phenoxypropyl)-6b,7,8,9,10,10a-hexahydro-1H-pyrido[3′,4′:4,5]-pyrrolo[1,2,3-de]quinoxalin-2(3H)-one]
inhibition at 0.1 µM (D2; [4]): 34% | Ki (5-HT2A): 2.84 nM | inhibition at 50 µM (SERT; at 50 μM (footnote a), read-out: SERT maximum inhibition): 8% | inhibition at 0.1 µM (D1): 24%

O=C1CN2c3c(cccc3[C@@H]3CN(CCCC(=O)c4ccc(Cl)s4)CC[C@@H]32)N1 [Ex. 4, (6bR,10aS)-8-(4-(5-chlorothiophen-2-yl)-4-oxobutyl)-6b,7,8,9,10,10a-hexahydro-1H-pyrido[3′,4′:4,5]-pyrrolo[1,2,3-de]quinoxalin-2(3H)-one]
inhibition at 0.1 µM (D2; [1]): 41% | Ki (5-HT2A): 18.3 nM | Ki (Mu opioid receptor): 8.15 nM | Ki (SERT): 66 nM | inhibition at 0.1 µM (D1; at 100 nM): 34%

O=C1CN2c3c(cccc3[C@@H]3CN(CCCOc4ccc(O)cc4)CC[C@@H]32)N1 [Ex. 6, (6bR,10aS)-8-(3-(4-hydroxyphenoxy)propyl)-6b,7,8,9,10,10a-hexahydro-1H-pyrido[3′,4′:4,5]pyrrolo[1,2,3-de]quinoxalin-2(3H)-one]
inhibition at 0.1 µM (D2; [4]): 41% | inhibition at 0.1 µM (5-HT2A): 77% | inhibition at 0.2 µM (SERT; [3]): 11% | inhibition at 0.1 µM (D1; at 100 nM): 0.86%

O=C1CN2c3c(cccc3[C@@H]3CN(CCCOc4ccc(OCc5ccccc5)cc4)CC[C@@H]32)N1 [Ex. 7, (6bR,10aS)-8-(3-(4-(benzyloxy)phenoxy)propyl)-6b,7,8,9,10,10a-hexahydro-1H-pyrido[3′,4′:4,5]-pyrrolo[1,2,3-de]quinoxalin-2(3H)-one]
inhibition at 0.1 µM (D2; [4]): 23% | inhibition at 0.1 µM (5-HT2A): 76% | inhibition at 0.2 µM (SERT; [3]): 68% | inhibition at 0.1 µM (D1): 4.6%

NC(=O)c1cc(F)ccc1OCCCN1CC[C@H]2[C@@H](C1)c1cccc3c1N2CC(=O)N3 [Ex. 8, 5-fluoro-2-(3-((6bR,10aS)-2-oxo-2,3,6b,9,10,10a-hexahydro-1H-pyrido[3′,4′:4,5]pyrrolo[1,2,3-de]quinoxalin-8(7H)-yl)propoxy)benzamide]
inhibition at 100 µM (D2; at 100 μM (footnote b), read-out: D2 maximum inhibition): < 0% | inhibition at 0.1 µM (5-HT2A): 14% | inhibition at 0.2 µM (SERT; [3]): 9.6% | inhibition at 0.1 µM (D1; at 100 nM): 0.78%

O=C1CN2c3c(cccc3[C@@H]3CN(CCCOc4ccc(F)c(F)c4)CC[C@@H]32)N1 [Ex. 9, (6bR,10aS)-8-(3-(3,4-difluorophenoxy)propyl)-6b,7,8,9,10,10a-hexahydro-1H-pyrido[3′,4′:4,5]pyrrolo-[1,2,3-de]quinoxalin-2(3H)-one]
inhibition at 0.1 µM (D2; [4]): 7% | Ki (5-HT2A): 16.1 nM | Ki (Mu opioid receptor): 1.83 nM | inhibition at 0.2 µM (SERT; [5]): 15% | inhibition at 0.1 µM (D1): 15%

Cc1cc(F)cc(C)c1OCCCN1CC[C@H]2[C@@H](C1)c1cccc3c1N2CC(=O)N3 [Ex. 11, (6bR,10aS)-8-(3-(4-fluoro-2,6-dimethylphenoxy)propyl)-6b,7,8,9,10,10a-hexahydro-1H-pyrido[3′,4′:4,5]-pyrrolo[1,2,3-de]quinoxalin-2(3H)-one]
inhibition at 0.1 µM (D2; [1]): < 0% | inhibition at 0.1 µM (5-HT2A): 40% | inhibition at 0.2 µM (SERT; [5]): 34% | inhibition at 0.1 µM (D1; at 100 nM): < 0%

O=C1Nc2cccc3c2N([C@H]2CCN(CCCOc4ccc(F)cc4)C[C@@H]32)C1(F)F [Ex. 13, (6bR,10aS)-1,1-difluoro-8-(3-(4-fluorophenoxy)propyl)-6b,7,8,9,10,10a-hexahydro-1H-pyrido[3′,4′:4,5]pyrrolo[1,2,3-de]quinoxalin-2(3H)-one]
inhibition at 0.1 µM (D2; [1]): 7% | inhibition at 0.1 µM (5-HT2A; at 100 nM): 21% | inhibition at 0.1 µM (Mu opioid receptor): < 0% | inhibition at 0.2 µM (SERT; [3]): 6% | inhibition at 0.1 µM (D1; at 100 nM): 24%

CC(=O)Nc1cccc2c1N[C@H]1CCN(CCCOc3ccc(F)cc3)C[C@@H]21 [Ex. 14, N-((4aS,9bR)-2-(3-(4-fluorophenoxy)propyl)-2,3,4,4a,5,9b-hexahydro-1H-pyrido[4,3-b]indol-6-yl)acetamide]
inhibition at 0.1 µM (D2; [1]): 11% | inhibition at 0.1 µM (5-HT2A; at 100 nM): 67% | inhibition at 0.1 µM (Mu opioid receptor): 9% | inhibition at 0.2 µM (SERT; [3]): 4% | inhibition at 0.1 µM (D1; at 100 nM): 25%

CC(=O)Nc1cccc2c1N[C@H]1CCN(CCCC(=O)c3ccc(F)cc3)C[C@@H]21 [Ex. 15, N-((4aS,9bR)-2-(4-(4-fluorophenyl)-4-oxobutyl)-2,3,4,4a,5,9b-hexahydro-1H-pyrido[4,3-b]indol-6-yl)acetamide]
inhibition at 0.1 µM (D2; [1]): 49% | inhibition at 0.1 µM (5-HT2A; at 100 nM): 80% | inhibition at 0.1 µM (Mu opioid receptor): 11% | inhibition at 0.2 µM (SERT; [3]): < 0% | inhibition at 0.1 µM (D1; at 100 nM): 45%

CC(=O)Nc1cccc2c1N[C@H]1CCN(CCCC(O)c3ccc(F)cc3)C[C@@H]21 (stereo partly drawn) [Ex. 16, N-((4aS,9bR)-2-(4-(4-fluorophenyl)-4-hydroxybutyl)-2,3,4,4a,5,9b-hexahydro-1H-pyrido[4,3-b]indol-6-yl)acetamide]
inhibition at 0.1 µM (D2; [1]): < 0% | inhibition at 0.1 µM (5-HT2A; at 100 nM): < 0% | inhibition at 0.1 µM (Mu opioid receptor): < 0% | inhibition at 0.2 µM (SERT; [3]): < 0% | inhibition at 0.1 µM (D1; at 100 nM): < 0%

Cc1cc(F)ccc1OCCCN1CC[C@H]2[C@@H](C1)c1cccc3c1N2CC(=O)N3 [Ex. 18]
inhibition at 0.1 µM (D2; [1]): 69% | Ki (5-HT2A): 0.4 nM | Ki (Mu opioid receptor): 2.9 nM | inhibition at 0.2 µM (SERT; [3]): 32% | inhibition at 0.1 µM (D1; at 100 nM): 40%

O=C1CN2c3c(cccc3[C@@H]3CN(CCCOc4ccc(F)cc4Cl)CC[C@@H]32)N1 [Ex. 19]
inhibition at 0.1 µM (D2; [1]): 80% | Ki (5-HT2A): 0.6 nM | Ki (Mu opioid receptor): 3 nM | inhibition at 0.2 µM (SERT; [3]): 23% | inhibition at 0.1 µM (D1; at 100 nM): 33%

CCc1cc(F)ccc1OCCCN1CC[C@H]2[C@@H](C1)c1cccc3c1N2CC(=O)N3 [Ex. 20]
inhibition at 0.1 µM (D2; [1]): 69% | Ki (5-HT2A): 0.3 nM | Ki (Mu opioid receptor): 5.4 nM | inhibition at 0.2 µM (SERT; [3]): 26% | inhibition at 0.1 µM (D1; at 100 nM): 66%

Cc1cc(OCCCN2CC[C@H]3[C@@H](C2)c2cccc4c2N3CC(=O)N4)ccc1F [Ex. 21]
inhibition at 0.1 µM (D2; [1]): 0% | 5-HT2A maximum inhibition (5-HT2A): 77% | Ki (Mu opioid receptor): 69 nM | inhibition at 0.1 µM (SERT; [2]): 14% | inhibition at 0.1 µM (D1; at 100 nM): < 1%

O=C1CN2c3c(cccc3[C@@H]3CN(CCCOc4ccc(F)c(Cl)c4)CC[C@@H]32)N1 [Ex. 22]
inhibition at 0.1 µM (D2; [1]): 0% | 5-HT2A maximum inhibition (5-HT2A): 65% | Ki (Mu opioid receptor): 74 nM | inhibition at 0.1 µM (SERT; [2]): 6% | inhibition at 0.1 µM (D1; at 100 nM): 0%

N#Cc1cc(OCCCN2CC[C@H]3[C@@H](C2)c2cccc4c2N3CC(=O)N4)ccc1F [Ex. 23]
inhibition at 0.1 µM (D2; [1]): 0% | 5-HT2A maximum inhibition (5-HT2A): 35% | Ki (Mu opioid receptor): 65 nM | inhibition at 0.1 µM (SERT; [2]): 13% | inhibition at 0.1 µM (D1; at 100 nM): 0%

N#Cc1cc(F)ccc1OCCCN1CC[C@H]2[C@@H](C1)c1cccc3c1N2CC(=O)N3 [Ex. 25]
Ki (D2): 43 nM | Ki (5-HT2A): 3.8 nM | Ki (Mu opioid receptor): 8.4 nM | Ki (SERT): 35 nM | Ki (D1): 74 nM

CN1C(=O)CN2c3c(cccc31)[C@@H]1CN(CCCOc3ccc(F)cc3C#N)CC[C@@H]12 [Ex. 26]
inhibition at 0.1 µM (D2; [1]): 14% | inhibition at 0.1 µM (5-HT2A; at 100 nM): 91% | Mu maximum inhibition (Mu opioid receptor; concentration not printed in this table (row head: Mu (Ki, nM))): 5% | inhibition at 0.2 µM (SERT; [3]): 93% | inhibition at 0.1 µM (D1; at 100 nM): 93%

O=C1CN2c3c(cccc3[C@@H]3CN(CCCOc4ccc(F)cc4)CC[C@@H]32)N1 [Fm. A, (6bR,10aS)-8-(3-(4-fluorophenoxy)propyl)-6b,7,8,9,10,10a-hexahydro-1H-pyrido[3′,4′:4,5]pyrrolo[1,2,3-de]quinoxalin-2(3H)-one, reference compound]
inhibition at 0.1 µM (D1): 44%

O=C1CN2c3c(cccc3[C@@H]3CN(CCCS(=O)(=O)c4ccc(F)cc4)CC[C@@H]32)N1 [compound 12, (6bR,10aS)-8-(3-((4-fluorophenyl)sulfonyl)propyl)-6b,7,8,9,10,10a-hexahydro-1H-pyrido[3′,4′:4,5]pyrrolo-[1,2,3-de]quinoxalin-2(3H)-one]
inhibition at 0.1 µM (5-HT2A): 33% | inhibition at 0.1 µM (Mu opioid receptor): < 0% | inhibition at 0.2 µM (SERT; [3]): < 0%
